Data: patent US7473709B2, “11β-benzaldoxime derivatives of D-homooestra-4,9-dien-3-ones” (Bayer Schering Pharma AG, priority 2005, dated 2009)

Columns and labels:
[1] = target: T1, Progesterone receptor (PR) (Oryctolagus cuniculus, UniProt P06186); assay: Receptor binding affinity, progesterone receptor (competitive binding with 3H-ORG 2058); settings: uterus cytosol of oestradiol-primed rabbit; tracer 3H-ORG 2058 5 nM; reference progesterone = 100%
T1 construct: receptors in the cytosol from animal target organs; from tissue; host or cells: uterus cytosol of oestradiol-primed rabbit
T1 sequence (P06186 1-930): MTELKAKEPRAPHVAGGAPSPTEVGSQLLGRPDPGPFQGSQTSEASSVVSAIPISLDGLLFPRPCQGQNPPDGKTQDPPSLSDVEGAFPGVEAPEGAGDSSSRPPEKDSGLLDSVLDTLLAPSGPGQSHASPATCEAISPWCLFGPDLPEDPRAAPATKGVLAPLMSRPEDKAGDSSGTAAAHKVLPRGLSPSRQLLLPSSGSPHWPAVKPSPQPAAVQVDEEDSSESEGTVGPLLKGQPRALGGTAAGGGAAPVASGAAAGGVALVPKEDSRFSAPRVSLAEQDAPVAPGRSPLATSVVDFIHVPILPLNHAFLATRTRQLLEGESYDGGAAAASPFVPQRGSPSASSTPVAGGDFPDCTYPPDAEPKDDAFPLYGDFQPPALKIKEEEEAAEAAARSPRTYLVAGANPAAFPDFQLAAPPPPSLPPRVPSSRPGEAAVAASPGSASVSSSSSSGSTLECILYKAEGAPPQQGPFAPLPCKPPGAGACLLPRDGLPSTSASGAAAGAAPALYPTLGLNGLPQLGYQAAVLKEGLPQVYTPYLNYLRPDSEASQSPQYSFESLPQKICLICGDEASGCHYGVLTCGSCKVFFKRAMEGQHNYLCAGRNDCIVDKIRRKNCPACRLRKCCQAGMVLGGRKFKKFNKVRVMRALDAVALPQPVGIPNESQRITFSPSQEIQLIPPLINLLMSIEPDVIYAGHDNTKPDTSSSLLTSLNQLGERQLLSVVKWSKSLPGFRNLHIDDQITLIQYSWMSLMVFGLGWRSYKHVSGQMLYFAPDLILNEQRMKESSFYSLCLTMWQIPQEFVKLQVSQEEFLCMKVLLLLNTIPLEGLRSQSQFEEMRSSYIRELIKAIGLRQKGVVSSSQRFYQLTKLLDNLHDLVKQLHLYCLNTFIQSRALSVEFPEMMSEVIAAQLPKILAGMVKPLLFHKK
Procedure: (§1) The receptor binding affinity was determined by the competitive binding of a specifically binding ^3H-labelled hormone (tracer) and the test compound to receptors in the cytosol from animal target organs, with the aim of achieving receptor saturation and reaction equilibrium.
(§2) The tracer and increasing concentrations of the test compound (competitor) were coincubated with the receptor-containing cytosol fraction at 0-4° C. for 18 h. After separation of the unbound tracer with a carbon/dextran suspension, the proportion of receptor-bound tracer was measured for each concentration and the IC50 was determined from the concentration series.
(§3) The following incubation conditions were chosen for the individual receptor types:
Uterus cytosol of the oestradiol-primed rabbit, homogenized in TED buffer (20 mM Tris/HCI, pH 7.4; 1 mM ethylenediaminetetraacetate, 2 mM dithiothreitol) containing 250 mM sucrose; kept at −30° C.

[2] = target: T2, Glucocorticoid receptor (GR) (Rattus norvegicus, UniProt P06536); assay: Receptor binding affinity, glucocorticoid receptor (competitive binding with 3H-dexamethasone)
T2 construct: receptors in the cytosol from animal target organs; from tissue; host or cells: thymus cytosol of adrenalectomized rat
T2 sequence (P06536 1-795): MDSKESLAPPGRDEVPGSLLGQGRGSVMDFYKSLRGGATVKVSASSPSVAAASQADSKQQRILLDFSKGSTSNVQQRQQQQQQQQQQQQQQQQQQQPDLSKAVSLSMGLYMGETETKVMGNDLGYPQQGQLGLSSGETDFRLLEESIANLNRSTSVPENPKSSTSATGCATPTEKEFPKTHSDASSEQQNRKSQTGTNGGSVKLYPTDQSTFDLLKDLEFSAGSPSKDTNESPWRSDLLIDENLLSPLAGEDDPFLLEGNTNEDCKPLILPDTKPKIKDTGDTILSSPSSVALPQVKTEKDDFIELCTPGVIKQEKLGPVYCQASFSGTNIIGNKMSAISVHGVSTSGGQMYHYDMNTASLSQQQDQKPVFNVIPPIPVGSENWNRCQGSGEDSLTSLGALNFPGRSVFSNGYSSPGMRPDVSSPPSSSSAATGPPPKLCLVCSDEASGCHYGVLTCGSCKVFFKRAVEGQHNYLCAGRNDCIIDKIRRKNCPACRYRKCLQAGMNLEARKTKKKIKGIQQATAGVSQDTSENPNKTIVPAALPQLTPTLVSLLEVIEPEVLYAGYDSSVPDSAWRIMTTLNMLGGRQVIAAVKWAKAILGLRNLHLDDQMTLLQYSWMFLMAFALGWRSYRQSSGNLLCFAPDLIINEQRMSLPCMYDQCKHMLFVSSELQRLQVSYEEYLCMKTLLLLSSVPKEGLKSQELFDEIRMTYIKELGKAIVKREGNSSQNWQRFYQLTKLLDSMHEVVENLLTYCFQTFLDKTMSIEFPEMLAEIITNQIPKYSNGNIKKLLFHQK
Procedure: as §1, §2, §3
Thymus cytosol of the adrenalectomized rat, thymi stored at −30° C.; buffer: TED. Tracer: ^3H-dexamethasone, 20 nM; reference substance: dexamethasone.

4-[17aβ-Methoxy-17aα-(methoxymethyl)-17a-homo-3-oxooestra-4,9-dien-11β-yl]benzaldehyde (1E)-[O-(ethylthio)carbonyl]oxime [Example 7]
Progesterone receptor (PR) progesterone = 100% (relative molar binding affinity, RBA) [1]: 65%
Ratio GR/PR ([2]; ratio of RBA at GR to RBA at PR): 1.7
Glucocorticoid receptor (GR) dexamethasone = 100% (relative molar binding affinity, RBA) ([2]; thymus cytosol of adrenalectomized rat, tracer 3H-dexamethasone 20 nM, reference dexamethasone = 100%): 112%
